# Values of other authors in EP1134585B1, “Biosensor and method for the monitoring of herbicides” (CONSIGLIO NAZIONALE DELLE RICERCHE, priority 2000, dated 2001).
# How the values were obtained:
# D1 protein Val219->Ile = D1 protein Val219->Ile (Chlamydomonas reinhardtii, UniProt P07753, V219I); conditions: code Dr2; cited from earlier work
# D1 protein Ala251-Val = D1 protein Ala251-Val (Chlamydomonas reinhardtii, UniProt P07753, A251V); conditions: code MZ2; cited from earlier work
# D1 protein Ser264->Ala [1] = molecular target: D1 protein Ser264->Ala (Chlamydomonas reinhardtii, UniProt P07753, S264A); conditions: codes MZ1 MZ3 MZ5; cited from earlier work
# [2] = molecular target: D1 protein Leu275->Phe (MZ4) (Chlamydomonas reinhardtii, UniProt P07753, L275F); conditions: code MZ4; cited from earlier work
# [3] = molecular target: D1 protein Ser264→Ala Asn266→Thr (Chlamydomonas reinhardtii, UniProt P07753, N266T/S264A); conditions: cited from earlier work
# [4] = molecular target: D1 protein I1e259->Ser Ser264->Ala Asn266->Thr (Chlamydomonas reinhardtii, UniProt P07753, I259S/N266T/S264A); conditions: cited from earlier work
# D1 protein A/a251->lIe = D1 protein A/a251->lIe (Chlamydomonas reinhardtii, UniProt P07753, A251I); conditions: cited from earlier work
# D1 protein Ala251→Leu = D1 protein Ala251→Leu (Chlamydomonas reinhardtii, UniProt P07753, A251L); conditions: cited from earlier work
# D1 protein Gly256->Asp = D1 protein Gly256->Asp (Chlamydomonas reinhardtii, UniProt P07753, G256D); conditions: code BR24; cited from earlier work
# [5] = molecular target: D1 protein Leu275->Phe (Br202) (Chlamydomonas reinhardtii, UniProt P07753, L275F); conditions: code Br202; cited from earlier work
# [6] = molecular target: D1 protein Phe255->Leu Ser264→Ala (Synechococcus elongatus, UniProt P04996, F255L/S264A); conditions: Synechococcus PCC7942, code Di22; cited from earlier work
# [7] = molecular target: D1 protein Phe255->Tyr Ser264->Ala (Synechococcus elongatus, UniProt P04996, F255Y/S264A); conditions: code D5; cited from earlier work
# D1 protein A1a251->Cys = D1 protein A1a251->Cys (Chlamydomonas reinhardtii, UniProt P07753, A251C); conditions: cited from earlier work
# D1 protein A1a251→Gly = D1 protein A1a251→Gly (Chlamydomonas reinhardtii, UniProt P07753, A251G); conditions: cited from earlier work
# D1 protein Phe255->Tyr = D1 protein Phe255->Tyr (Chlamydomonas reinhardtii, UniProt P07753, F255Y); conditions: code Ar207+; cited from earlier work
# D1 protein Ser264->Ala [8] = molecular target: D1 protein Ser264->Ala (Synechococcus elongatus, UniProt P04996, S264A); conditions: Anacystis nidulans R2; cited from earlier work
# D1 protein Ala250->Asp = D1 protein Ala250->Asp (Chlamydomonas reinhardtii, UniProt P07753, A250D); conditions: cited from earlier work
# D1 protein A1a250->His = D1 protein A1a250->His (Chlamydomonas reinhardtii, UniProt P07753, A250H); conditions: cited from earlier work
# D1 protein A1a263->Pro = D1 protein A1a263->Pro (Synechocystis sp., UniProt P16033, A263P); conditions: cited from earlier work
# D1 protein Ser264->Pro = D1 protein Ser264->Pro (Synechocystis sp., UniProt P16033, S264P); conditions: cited from earlier work
# [9] = molecular target: D1 protein Phe211→Ala Met214→Thr (Chlamydomonas reinhardtii, UniProt P07753, F211A/M214T); conditions: cited from earlier work
# [10] = molecular target: D1 protein Phe211→Gly Met214→Gln (Chlamydomonas reinhardtii, UniProt P07753, F211G/M214Q); conditions: cited from earlier work
# [11] = molecular target: D1 protein Phe211-+Gly Met214->Ser (Chlamydomonas reinhardtii, UniProt P07753, F211G/M214S); conditions: cited from earlier work
# [12] = molecular target: D1 protein Phe211->Thr Met214->Gly (Chlamydomonas reinhardtii, UniProt P07753, F211T/M214G); conditions: cited from earlier work
# D1 protein Ala250->Arg = D1 protein Ala250->Arg (Chlamydomonas reinhardtii, UniProt P07753, A250R); conditions: cited from earlier work
# D1 protein Ala250->Asn = D1 protein Ala250->Asn (Chlamydomonas reinhardtii, UniProt P07753, A250N); conditions: cited from earlier work
# D1 protein A1a250->Tyr = D1 protein A1a250->Tyr (Chlamydomonas reinhardtii, UniProt P07753, A250Y); conditions: cited from earlier work
compound,measurement,setting,value
CNC(=O)Nc1nc2ccccc2s1 [Benzthiazuron],R/S Resistance,D1 protein Val219->Ile,Benzthiazuron 16
same,R/S Resistance,D1 protein Ala251-Val,Benzthiazuron 16
same,R/S Resistance,D1 protein Ser264->Ala [1],49-80
same,R/S Resistance,[2],Benzthiazuron 4
same,R/S Resistance,[3],Benzthiazuron 50
same,R/S Resistance,[4],Benzthiazuron 20
CCC(C)n1c(=O)[nH]c(C)c(Br)c1=O (centres unmarked) [Bromacil],R/S Resistance,D1 protein A/a251->lIe,Bromacil 11
same,R/S Resistance,D1 protein Ala251→Leu,Bromacil 26
same,R/S Resistance,D1 protein Gly256->Asp,Bromacil 10
same,R/S Resistance,D1 protein Ser264->Ala [1],Bromacil 106
same,R/S Resistance,[5],"Bromacil 4,5"
same,R/S Resistance,[6],Bromacil 37
same,R/S Resistance,[7],Bromacil 17
O=C1C(Br)=C(Br)C(=O)C(Br)=C1Br [Bromanil],R/S Resistance,D1 protein Val219->Ile,"Bromanil 1,2-2"
N#Cc1cc(Br)c(O)c(Br)c1 [Bromoxynil],R/S Resistance,D1 protein A1a251->Cys,"Bromoxynil 6,3"
same,R/S Resistance,D1 protein A1a251→Gly,"Bromoxynil 2,5"
CCC(C)c1cc([N+](=O)[O-])cc([N+](=O)[O-])c1O (centres unmarked) [Dinoseb],R/S Resistance,D1 protein Val219->Ile,"Dinoseb 7,5"
same,R/S Resistance,D1 protein Ala251-Val,Dinoseb 3
same,R/S Resistance,D1 protein Phe255->Tyr,Dinoseb 3
CCS(=O)(=O)c1nnc(N(C)C(=O)NC)s1 [Ethidimuron],R/S Resistance,[6],Ethidimuron 16
CCCCCCCc1cc(O)c2ccccc2[n+]1[O-] [HQNO],R/S Resistance,D1 protein Ser264->Ala [8],HQNO 6
O=c1[nH]c2c(c(=O)n1C1CCCCC1)CCC2 [Lenacil],R/S Resistance,D1 protein Ala251-Val,Lenacil 160
same,R/S Resistance,[2],Lenacil 3
CSc1nnc(C(C)(C)C)c(=O)n1N [Metribuzin],R/S Resistance,D1 protein Val219->Ile,Metribuzin 200
same,R/S Resistance,D1 protein Ala250->Asp,"Metibuzin 1,3"
same,R/S Resistance,D1 protein A1a250->His,"Metribuzin 1,3"
same,R/S Resistance,D1 protein A1a251->Cys,"Metribuzin 2,5"
same,R/S Resistance,D1 protein A/a251->lIe,Metribuzin 55
same,R/S Resistance,D1 protein Ala251→Leu,Metribuzin 108
same,R/S Resistance,D1 protein Ala251-Val,Metribuzin 1000
same,R/S Resistance,D1 protein A1a263->Pro,Metribuzin 1600
same,R/S Resistance,D1 protein Ser264->Pro,Metribuzin 25
same,R/S Resistance,[2],Metribuzin 20-26
same,R/S Resistance,[9],Metribuzin 1
same,R/S Resistance,[10],Metribuzin 1
same,R/S Resistance,[11],"Metribuzin 1,6"
same,R/S Resistance,[12],Metribuzin 1
same,R/S Resistance,[6],Metribuzin 175
same,R/S Resistance,[7],Metribuzin 2000
same,R/S Resistance,[3],Metribuzin 1580
same,R/S Resistance,[4],Metribuzin 1550
CCN(C(=O)Oc1cccc(NC(=O)OC(C)C)c1)c1ccccc1 [Phenisopham],R/S Resistance,D1 protein Ser264->Ala [1],Phenisopham 40
CCNc1nc(NC(C)(C)C)nc(SC)n1 [Terbutryn],R/S Resistance,D1 protein Ala250->Arg,"Terbutryn 1,3"
same,R/S Resistance,D1 protein Ala250->Asn,"Terbutryn 1,3"
same,R/S Resistance,D1 protein A1a250->His,"Terbutryn 1,8"
same,R/S Resistance,D1 protein A1a250->Tyr,"Terbutryn 1,3"
same,R/S Resistance,D1 protein A1a251->Cys,"Terbutryn 1,0"
same,R/S Resistance,D1 protein A1a251→Gly,Terbutryn 1
same,R/S Resistance,D1 protein A1a263->Pro,Terbutryn 160
same,R/S Resistance,D1 protein Ser264->Pro,Terbutryn 300
same,R/S Resistance,[6],"Terbutryn 1,5"
CNC(=O)N(C)c1nnc(C(C)(C)C)s1 [Thebuthiron],R/S Resistance,[6],"Thebuthiron 6,2"
CC(C)Cc1cc([N+](=O)[O-])cc([N+](=O)[O-])c1O [i-Dinoseb],R/S Resistance,[2],i-Dinoseb 3
